Here are results for eight molecules from patent US7435386B2, “Reagentless and reusable biosensors with tunable differential binding affinities and methods of making” (dated 2008).

The Kd is the constant that tells how readily two partners part at equilibrium.

The target in assay [1] is P1-Bio3-MBP95C-QSY7-Bio-X NTA (Escherichia coli, UniProt P0AEX9, D121C). Put plainly: Sensor sensitivity to different sugars, unmodulated sensor. The note with it: response to 1 mM maltose defines 100%; for Δ FL 100 μM: 100 μM sugar; for Δ FL 1 mM: 1 mM sugar.
Assay [2] addresses P1-Bio3-MOD2-MBP95C-QSY7-Bio-X NTA (Escherichia coli, UniProt P0AEX9, D121C). Put plainly: Sensor sensitivity to different sugars, MOD2-modulated sensor. The note with it: response to 1 mM maltose defines 100%; for Δ FL 100 μM: 100 μM sugar; for Δ FL 1 mM: 1 mM sugar.
The test system of assay [3] is AFF 532-labeled α-TNTscFv-Leu145Cys protein. Put plainly: TNT sensor titration with explosives (loss of FRET fluorescence at 600 nm). The note with it: specificity and cross-reactivity against TNT structural analogues.
Another assay concerns the target Native MBP (Escherichia coli, UniProt P0AEX9). The conditions noted are these: cited from earlier work.

On to `OC[C@H]1O[C@@](CO)(O[C@H]2O[C@H](CO)[C@@H](O)[C@H](O)[C@H]2O)[C@@H](O)[C@@H]1O`, for which, in assay [1], the “Δ FL 100 μM” value was under 1% and the “Δ FL 1 mM” value was under 1%. For the same molecule, in assay [2], the “Δ FL 100 μM” value is under 1% and the “Δ FL 1 mM” value is on record as under 1%.

Take `O=C[C@H](O)[C@@H](O)[C@H](O)[C@H](O)CO`: in assay [1], the “Δ FL 100 μM” value is under 1% and the “Δ FL 1 mM” value was under 1%. Moreover, in assay [2], the “Δ FL 100 μM” value is given as under 1% and the “Δ FL 1 mM” value is under 1%.

For the molecule `Cc1c(N)cc([N+](=O)[O-])cc1[N+](=O)[O-]`, the “sensor response in terms of absolute fluorescence change” value in assay [3] was “significantly less response”.

As to β-Cyclodextrin, the Kd at Native MBP is 1800 nM. For the same molecule, in assay [1], the “Δ FL 100 μM” value is on record as 14% and the “Δ FL 1 mM” value amounted to 58%. For the same molecule, in assay [2], the “Δ FL 100 μM” value amounted to 28% and the “Δ FL 1 mM” value stood at 73%.

Take `O=C[C@@H](O)[C@H](O)[C@H](O)CO`: in assay [1], the “Δ FL 100 μM” value is recorded as under 1% and the “Δ FL 1 mM” value was under 1%. In assay [2], the “Δ FL 100 μM” value is given as under 1% and the “Δ FL 1 mM” value is under 1%.

Take `OC[C@H]1O[C@@H](O[C@H]2[C@H](O)[C@@H](O)C(O)O[C@@H]2CO)[C@H](O)[C@@H](O)[C@H]1O` (stereo partly drawn): in assay [1], the “Δ FL 100 μM” value was under 1% and the “Δ FL 1 mM” value was under 1%. In addition, in assay [2], the “Δ FL 100 μM” value was under 1% and the “Δ FL 1 mM” value is recorded as under 1%.

On to `OC[C@H]1O[C@H](O[C@H]2[C@H](O)[C@@H](O)[C@H](O)O[C@@H]2CO)[C@H](O)[C@@H](O)[C@@H]1O`, for which the “Δ FL 100 μM” value in assay [1] is listed as 100%; in assay [2], 60%. Besides, the “Δ FL 1 mM” value in assay [1] and in assay [2] was 100% in each case.

With `O=C[C@H](O)[C@@H](O)[C@@H](O)[C@H](O)CO`, in assay [1], the “Δ FL 100 μM” value is on record as under 1% and the “Δ FL 1 mM” value is reported as under 1%. For the same molecule, in assay [2], the “Δ FL 100 μM” value is reported as under 1% and the “Δ FL 1 mM” value is listed as under 1%.
